Cyclic peptide permeability, from CycPeptMPDB

Values of Kelly et al. 2021, doi:10.1021/jacs.0c06115, as listed in CycPeptMPDB.

PAMPA measures passive passage through an artificial lipid membrane.
Values are log10 P with P in cm/s, so -5 is more permeable than -7.

structure (SMILES)	PAMPA (log10 cm/s)
CC[C@H]1NC(=O)[C@@H](NC(=O)[C@@H](CC(C)C)N(C)C(=O)[C@@H]2CCCN2C(C)=O)[C@@H](C)OC(=O)[C@@H]2CCCN2C(=O)[C@H](CC(C)C)NC(=O)[C@@H](C)N(C)C(=O)[C@@H](CC2CCCCC2)NC(=O)[C@H](Cc2ccc(OC)cc2)NC1=O	-5.46
CCC[C@H]1NC(=O)[C@@H](NC(=O)[C@@H](CC(C)C)N(C)C(=O)[C@@H]2CCCN2C(C)=O)[C@@H](C)OC(=O)[C@@H]2CCCN2C(=O)[C@H](CC(C)C)NC(=O)[C@@H](C)N(C)C(=O)[C@@H](CC2CCCCC2)NC(=O)[C@H](Cc2ccc(F)cc2)NC1=O	-6.03
CC(=O)N[C@@H]1C(=O)N2CCC[C@H]2C(=O)N(C)[C@H](CC(C)C)C(=O)N[C@@H](CC(C)C)C(=O)N[C@@H](CC(C)C)C(=O)N(C)[C@@H](CC(C)C)C(=O)N[C@@H](C)C(=O)N[C@@H](CC(C)C)C(=O)N2CCC[C@@H]2C(=O)O[C@@H]1C	-6.79
CC(=O)N1CCC[C@H]1C(=O)N(C)[C@H](CC(C)C)C(=O)N[C@@H]1C(=O)N[C@H](Cc2ccc(F)c(F)c2)C(=O)N[C@@H](CCc2ccccc2)C(=O)N[C@H](Cc2ccccc2)C(=O)N(C)[C@H](C)C(=O)N[C@@H](CC(C)C)C(=O)N2CCC[C@H]2C(=O)O[C@@H]1C	-6.23
CC(=O)N1CCC[C@H]1C(=O)N(C)[C@H](CC(C)C)C(=O)N[C@@H]1C(=O)N[C@H](Cc2ccc(F)cc2)C(=O)N[C@@H](CC(C)C)C(=O)N[C@H](Cc2ccc(F)c(F)c2)C(=O)N(C)[C@H](C)C(=O)N[C@@H](CC(C)C)C(=O)N2CCC[C@H]2C(=O)O[C@@H]1C	-5.58
CC[C@@H]1NC(=O)[C@@H](CC2CCCCC2)NC(=O)[C@@H](NC(=O)[C@@H](CC(C)C)N(C)C(=O)[C@@H]2CCCN2C(C)=O)[C@@H](C)OC(=O)[C@@H]2CCCN2C(=O)[C@H](CC(C)C)NC(=O)[C@@H](C)N(C)C(=O)[C@@H](Cc2ccc(F)c(F)c2)NC1=O	-5.41
CCC[C@H]1NC(=O)[C@@H](NC(=O)[C@@H](CC(C)C)N(C)C(=O)[C@@H]2CCCN2C(C)=O)[C@@H](C)OC(=O)[C@@H]2CCCN2C(=O)[C@H](CC(C)C)NC(=O)[C@@H](C)N(C)C(=O)[C@@H](CC(C)C)NC(=O)[C@H](CC(C)C)NC1=O	-5.47
CC(=O)N[C@@H]1C(=O)N2CCC[C@H]2C(=O)N(C)[C@H](CC(C)C)C(=O)N[C@@H](CC(C)C)C(=O)N(C)[C@H](CC(C)C)C(=O)N(C)[C@H](CC(C)C)C(=O)N[C@@H](C)C(=O)N[C@@H](CC(C)C)C(=O)N2CCC[C@@H]2C(=O)O[C@@H]1C	-5.55
CCC[C@@H]1NC(=O)[C@@H](CC)NC(=O)[C@@H](NC(=O)[C@@H](CC(C)C)N(C)C(=O)[C@@H]2CCCN2C(C)=O)[C@@H](C)OC(=O)[C@@H]2CCCN2C(=O)[C@H](CC(C)C)NC(=O)[C@@H](C)N(C)C(=O)[C@@H](Cc2ccc(F)cc2)NC1=O	-5.96
CC(=O)N[C@@H]1C(=O)N2CCC[C@H]2C(=O)N(C)[C@H](CC(C)C)C(=O)N[C@H](CC(C)C)C(=O)N(C)[C@H](CC(C)C)C(=O)N[C@H](CC(C)C)C(=O)N(C)[C@@H](C)C(=O)N[C@@H](CC(C)C)C(=O)N2CCC[C@@H]2C(=O)O[C@@H]1C	-5.34
CC(=O)N1CCC[C@H]1C(=O)N[C@@H]1C(=O)N(C)[C@H](CC(C)C)C(=O)N(C)[C@@H](CC(C)C)C(=O)N[C@H](CC(C)C)C(=O)N(C)[C@@H](CC(C)C)C(=O)N[C@H](C)C(=O)N[C@@H](CC(C)C)C(=O)N2CCC[C@@H]2C(=O)O[C@@H]1C	-5.33
CC(=O)N1CCC[C@H]1C(=O)N[C@@H]1C(=O)N(C)[C@H](CC(C)C)C(=O)N(C)[C@H](CC(C)C)C(=O)N(C)[C@H](CC(C)C)C(=O)N[C@H](CC(C)C)C(=O)N[C@H](C)C(=O)N[C@@H](CC(C)C)C(=O)N2CCC[C@@H]2C(=O)O[C@@H]1C	-5.64
CC(=O)N[C@@H]1C(=O)N2CCC[C@H]2C(=O)N(C)[C@H](CC(C)C)C(=O)N[C@H](CC(C)C)C(=O)N[C@@H](CC(C)C)C(=O)N(C)[C@@H](CC(C)C)C(=O)N[C@@H](C)C(=O)N[C@@H](CC(C)C)C(=O)N2CCC[C@@H]2C(=O)O[C@@H]1C	-6.51
CC[C@H]1NC(=O)[C@@H](NC(=O)[C@@H](CC(C)C)N(C)C(=O)[C@@H]2CCCN2C(C)=O)[C@@H](C)OC(=O)[C@@H]2CCCN2C(=O)[C@H](CC(C)C)NC(=O)[C@@H](C)N(C)C(=O)[C@@H](Cc2ccccc2)NC(=O)[C@H](CCc2ccccc2)NC1=O	-5.53
CC(=O)N1CCC[C@H]1C(=O)N[C@@H]1C(=O)N(C)[C@H](CC(C)C)C(=O)N(C)[C@@H](CC(C)C)C(=O)N(C)[C@H](CC(C)C)C(=O)N[C@@H](CC(C)C)C(=O)N[C@H](C)C(=O)N[C@@H](CC(C)C)C(=O)N2CCC[C@@H]2C(=O)O[C@@H]1C	-5.23
CC(=O)N[C@@H]1C(=O)N2CCC[C@H]2C(=O)N(C)[C@H](CC(C)C)C(=O)N(C)[C@@H](CC(C)C)C(=O)N[C@H](CC(C)C)C(=O)N[C@@H](CC(C)C)C(=O)N[C@@H](C)C(=O)N[C@@H](CC(C)C)C(=O)N2CCC[C@@H]2C(=O)O[C@@H]1C	-6.35
COc1ccc(C[C@@H]2NC(=O)[C@@H](CC(C)C)NC(=O)[C@@H](NC(=O)[C@@H](CC(C)C)N(C)C(=O)[C@@H]3CCCN3C(C)=O)[C@@H](C)OC(=O)[C@@H]3CCCN3C(=O)[C@H](CC(C)C)NC(=O)[C@@H](C)N(C)C(=O)[C@@H](Cc3cccc4ccccc34)NC2=O)cc1	-6.32
CC(=O)N1CCC[C@H]1C(=O)N(C)[C@H](CC(C)C)C(=O)N[C@@H]1C(=O)N[C@H](Cc2cccc3ccccc23)C(=O)N[C@@H](CCc2ccccc2)C(=O)N[C@H](Cc2ccccc2)C(=O)N(C)[C@H](C)C(=O)N[C@@H](CC(C)C)C(=O)N2CCC[C@H]2C(=O)O[C@@H]1C	-6.65
CC(=O)N1CCC[C@H]1C(=O)N[C@@H]1C(=O)N(C)[C@H](CC(C)C)C(=O)N[C@@H](CC(C)C)C(=O)N(C)[C@@H](CC(C)C)C(=O)N(C)[C@H](CC(C)C)C(=O)N(C)[C@H](C)C(=O)N[C@@H](CC(C)C)C(=O)N2CCC[C@@H]2C(=O)O[C@@H]1C	-5.90
CCC[C@@H]1NC(=O)[C@@H](CC)NC(=O)[C@@H](NC(=O)[C@@H](CC(C)C)N(C)C(=O)[C@@H]2CCCN2C(C)=O)[C@@H](C)OC(=O)[C@@H]2CCCN2C(=O)[C@H](CC(C)C)NC(=O)[C@@H](C)N(C)C(=O)[C@@H](CC2CCCCC2)NC1=O	-5.32
CC(=O)N1CCC[C@H]1C(=O)N(C)[C@H](CC(C)C)C(=O)N[C@@H]1C(=O)N[C@H](Cc2ccc(F)cc2)C(=O)N[C@@H](CC(C)C)C(=O)N[C@H](Cc2cccc3ccccc23)C(=O)N(C)[C@H](C)C(=O)N[C@@H](CC(C)C)C(=O)N2CCC[C@H]2C(=O)O[C@@H]1C	-6.12
CC[C@H]1NC(=O)[C@@H](NC(=O)[C@@H](CC(C)C)N(C)C(=O)[C@@H]2CCCN2C(C)=O)[C@@H](C)OC(=O)[C@@H]2CCCN2C(=O)[C@H](CC(C)C)NC(=O)[C@@H](C)N(C)C(=O)[C@@H](CC)NC(=O)[C@H](Cc2ccc(F)cc2)NC1=O	-6.56
CC(=O)N1CCC[C@H]1C(=O)N[C@@H]1C(=O)N(C)[C@H](CC(C)C)C(=O)N(C)[C@@H](CC(C)C)C(=O)N[C@H](CC(C)C)C(=O)N(C)[C@H](CC(C)C)C(=O)N(C)[C@@H](C)C(=O)N[C@@H](CC(C)C)C(=O)N2CCC[C@@H]2C(=O)O[C@@H]1C	-5.09
CCC[C@@H]1NC(=O)[C@@H](Cc2ccc(F)cc2)NC(=O)[C@@H](NC(=O)[C@@H](CC(C)C)N(C)C(=O)[C@@H]2CCCN2C(C)=O)[C@@H](C)OC(=O)[C@@H]2CCCN2C(=O)[C@H](CC(C)C)NC(=O)[C@@H](C)N(C)C(=O)[C@@H](Cc2ccccc2)NC1=O	-5.54

Excerpt, the final 2 entries:

{"smiles": "CC(=O)N1CCC[C@H]1C(=O)N[C@@H]1C(=O)N(C)[C@H](CC(C)C)C(=O)N(C)[C@@H](CC(C)C)C(=O)N[C@H](CC(C)C)C(=O)N(C)[C@H](CC(C)C)C(=O)N(C)[C@@H](C)C(=O)N[C@@H](CC(C)C)C(=O)N2CCC[C@@H]2C(=O)O[C@@H]1C", "PAMPA (log10 cm/s)": "-5.09"}
{"smiles": "CCC[C@@H]1NC(=O)[C@@H](Cc2ccc(F)cc2)NC(=O)[C@@H](NC(=O)[C@@H](CC(C)C)N(C)C(=O)[C@@H]2CCCN2C(C)=O)[C@@H](C)OC(=O)[C@@H]2CCCN2C(=O)[C@H](CC(C)C)NC(=O)[C@@H](C)N(C)C(=O)[C@@H](Cc2ccccc2)NC1=O", "PAMPA (log10 cm/s)": "-5.54"}

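The data file gives no further conditions (lipid, pH, time, direction or concentration), and values from different papers need not be comparable. Other peptides of the study may be missing here. Entries at the database's floor value (log10 P of -10) are not listed.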